Here are results for 1 compound from ChEMBL document CHEMBL1129543, “Synthesis and evaluation of N-(phenylacetyl)trifluoromethanesulfonamides as anticonvulsant agents” (J Med Chem, 1996).

For the test, the species on record is Rattus norvegicus. Briefly: Protective index (TD50/ED50) was determined against MES induced seizure in rat. In kind it is functional. The procedure, abridged:
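Oral dosing in 30% PEG 400: phase IV in mice (0.01 mL/g), phase VI in Sprague-Dawley rats (0.004 mL/g). ED50/TD50 found as in phase II, at the stated time of peak effect. MES current 50 mA in mice, 150 mA in rats. PTZ sc 85 mg/kg in mice, 70 mg/kg in rats. Toxicity by rotorod in mice; positional sense, gait and stance in rats. PI = TD50/ED50.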

Turning to `CCC1(C)CC(=O)NC1=O` (stereo unspecified) [ETHOSUXIMIDE], the PI is less than 0.44.
